# Apparent affinities of Ab-14 variants for a coronavirus HR2 peptide

The target is the same throughout: PDVDLGDISGINAS, from the HR2 region of SARS-CoV-2 spike.

Ab-14 is the parent antibody, in scFv form: VH, then three GGGGS repeats, then VL. The light chain is unchanged in all variants.
VH: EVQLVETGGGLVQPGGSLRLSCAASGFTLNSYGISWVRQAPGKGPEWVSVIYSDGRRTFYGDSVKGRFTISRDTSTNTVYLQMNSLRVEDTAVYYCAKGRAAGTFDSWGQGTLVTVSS
VL: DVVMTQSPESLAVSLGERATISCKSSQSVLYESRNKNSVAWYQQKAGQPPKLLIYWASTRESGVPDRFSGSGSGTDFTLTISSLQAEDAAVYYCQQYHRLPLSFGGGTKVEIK

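Phage display of a naive human antibody library on the peptide gave the parent. Designed CDR sequences, proposed from the first random library and measured here. Several design methods are mixed in this list. The scFvs were displayed on barcoded MATa yeast, the peptide on MATalpha yeast. Binding brings cells together so that they mate, and sequencing counts the barcode pairs among the diploids. A regression on co-assayed BCL2-family reference pairs converts the normalised counts of each replicate to an apparent Kd. Each pool was mated in six replicate cultures.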

The parent's heavy chain CDRs are GFTLNSYGIS, VIYSDGRRTFYGDSVK, GRAAGTFDS; each variant's own CDRs replace them letter for letter.
Values are log10 of the apparent Kd in nM; lower means stronger binding.
Averages over replicates are reported, and they cover detected replicates only.
Where no diploid with the target was found in any replicate, the entry reads "nd": below detection, most likely a poor binder, though not proof of it.
A sequence that the file lists under several names has all its replicates pooled.
A sequence measured in both rounds can read differently, since the two assays cover different ranges.
Three control strains display no target. For all heavy chain designs, 1% of the pairings with them gave a signal, with a median of 2.08 and one signal in twenty below 0.84, so weak values seen in few replicates may be background. The control count says in how many pairings with the empty strains this scFv gave a signal.
In the paper, a design with two or fewer of six values counts as a poor binder.

| CDR-H1 | CDR-H2 | CDR-H3 | mean log10 Kd (nM) | detected | empty controls |
|---|---|---|---|---|---|
| GFTLNSYGIS | VIYSDGRRTFYSDSVK | GTAVGTFDT | nd | 0 of 6 | 0 of 18 |
| GFDLDEYGIS | VIYADGMRTAYQDSVK | GNQAGTFDV | -0.64 | 6 of 6 | 0 of 18 |
| GFDLNEYGIS | VIYADGMRTFYADDVK | GSNAGTFDV | 1.14 | 6 of 6 | 0 of 18 |
| GFDLDEYGIS | VIYADGKRTAYADNVK | GNVAGTFDL | -0.87 | 6 of 6 | 0 of 18 |
| GFDLNEYGIS | VIYADGMRTVYADSVK | GNEAGTFDV | -0.02 | 6 of 6 | 0 of 18 |
| GFTLNDYGIS | VIYSDGRRTFYIDSVK | GRAAGTFDS | 0.87 | 6 of 12 | 1 of 36 |
| GFNLDEYGIS | VIYADGMRTAYADSVK | GNEAGTFDV | -0.74 | 6 of 6 | 0 of 18 |
| GFTLNSYGIS | VIYNDGRRTFYGDSVK | GYAAGTFDS | nd | 0 of 6 | 0 of 18 |
| GFTLNSYGIS | VIYSDGRRTFYGDSVK | GFAAGTFNK | nd | 0 of 6 | 0 of 18 |
| KFTLNSYGIS | VIYSDGKRTFYSDSVK | GKTAGTFDS | 0.72 | 6 of 6 | 0 of 18 |
| GFNFDEYGIS | VIYADGKRNFYSDSVK | GYITGFMEV | nd | 0 of 6 | 0 of 18 |
| GFTLNEYGIS | VIYSDGYRTFYGDSVK | GRAAVTFDV | nd | 0 of 6 | 0 of 18 |
| GFTLNSYGIS | VIYADGRRTFYGDSVK | GRAAGTFDG | 1.05 | 5 of 6 | 0 of 18 |
| GFQLESYGIS | VIYSDGRRTFYGDSVK | GRLAGTFDL | 1.27 | 5 of 6 | 0 of 18 |
| TFDLNEYGIS | VIYSDGRRTFYGDSVK | GRAAVTFDS | nd | 0 of 6 | 0 of 18 |
| GFDLNEYGIS | VIYADGKRTFYSDSVK | GNHAGTFDV | -0.42 | 6 of 6 | 0 of 18 |
| GFGLNEYGIS | VIYSDGRRTFYADSVK | GHAAGTFDS | 0.33 | 6 of 6 | 0 of 18 |
| GFELNSYGIS | VIYSDGKRTFYGDSVK | GREAGTFDS | 0.74 | 6 of 6 | 0 of 18 |
| GFFLDEYGIS | VIYADGQRTAYKDKVK | GSDTGLGWF | nd | 0 of 6 | 0 of 18 |
| GFSLNSYGIS | VIYSDGRRTFYIDSVK | GRVAGTFDS | 1.61 | 4 of 6 | 0 of 18 |
| GFTLNEYGIS | VIYSDGRRTFYMDSVK | GRWAGTFDS | 1.11 | 3 of 6 | 0 of 18 |
| GFNLNEYGIS | VIYADGVRTFYADSVK | GEIAGTFDV | -0.66 | 6 of 6 | 0 of 18 |
| GFDLDEYGIS | VIYADGKRTAYSDSVK | GNQAGTFDI | 0.96 | 5 of 6 | 0 of 18 |
| GFTLNSYGIS | VIYSDGRRTFYGDSVK | GDQMGTMPS | 3.23 | 1 of 6 | 1 of 18 |
| GQDLNEYGIS | VIYADGKRVAYEDSVK | GKSKGLVFV | nd | 0 of 6 | 0 of 18 |
| GFQLSSYGIS | VIYSDGRRTFYGDSVK | GRAAGTFDM | 1.83 | 6 of 6 | 1 of 18 |
| GFNLDEYGIS | VIYADGSRVAYADNVK | GLNGKIGDL | 1.57 | 1 of 6 | 1 of 18 |
| GFTPASYGIS | VMYSDGRRTFYSDSVK | GWAAGTDDS | nd | 0 of 6 | 0 of 18 |
| GFTLNSYGIS | VIYSDGRRTFYSDSVK | GVAGGTFDQ | 0.29 | 1 of 6 | 0 of 18 |
| GFTLNEYGIS | VIYSDGRRTFYGDSMK | GRAAVTFDQ | nd | 0 of 6 | 0 of 18 |
| GFTLNSYGIS | VIYSDNRRTAYKDSVK | GRAAGRFDS | nd | 0 of 6 | 0 of 18 |
| GFDLNEYGIS | VIYADGRRTAYADNVK | GNVAGTFDL | -0.50 | 6 of 6 | 0 of 18 |
| GFSLNSYGIS | VIYSDGRRTFYSDSVK | GMQAGTFDS | 0.64 | 4 of 6 | 0 of 18 |
| GFTLNSYGIS | VIYSDGRRTFYGDSVK | GQAADTFDS | nd | 0 of 6 | 0 of 18 |
| GFTLNSYGIS | VIYSDGRRTFYADSVK | GRTAGTFDK | 0.51 | 3 of 6 | 0 of 18 |
| GFDLNEYGIS | VIYADGMRTFYSDSVK | GQLAGTFDV | -0.34 | 6 of 6 | 0 of 18 |
| GFDLNEYGIS | VIYADGVRKAYADDVK | GNNAGTFDI | -0.52 | 6 of 6 | 0 of 18 |
| GFDLNEYGIS | VIYADGMRTAYADSVK | GNSAGTFDI | -0.39 | 6 of 6 | 0 of 18 |
| GFDFNEYGIS | VIYADGKRTAYADKFK | GGKSAFTDI | nd | 0 of 6 | 1 of 18 |
| GFGIGEYGIS | VIYADGRRTFYKDDVK | GNGIVAGVD | nd | 0 of 6 | 0 of 18 |
| GFTLNSYGIS | VIYSDGKRTFYGDSVK | GEAAGTFDK | 1.57 | 6 of 6 | 0 of 18 |
| GFDLDEYGIS | VIYADGMRTAYSDSVK | GEVAGTFDI | -0.34 | 6 of 6 | 0 of 18 |
| GFDLNEYGIS | VIYADGMRTAYANSVK | GETAGTFDV | -0.44 | 6 of 6 | 2 of 18 |
| GFHLNSYGIS | VIYSDGRRTFYGDSVK | GKIAGTFDS | 2.01 | 6 of 6 | 1 of 18 |
| GFDLNEYGIS | VIYADGRRTFYADSVK | GKNAGTFLV | 1.58 | 5 of 6 | 0 of 18 |
| GFELNSYGIS | VIYSDGKRTFYADSVK | GREAGTFDS | -0.14 | 6 of 6 | 2 of 18 |
| GFTLNEYGIS | VIYSDGRRTFYGQSVK | GRAAVTFDQ | nd | 0 of 6 | 0 of 18 |
| GFTLNEYGIS | VIYSDGRRTFYGDSVK | GRAAHTFDS | nd | 0 of 6 | 1 of 18 |
| GFTLESYGIS | VIYSDGRRTFYRDSVK | GRAAGTFDS | 0.71 | 1 of 6 | 0 of 18 |
| GFKLEAYGIS | VIYADGQRAAYVDKVK | GQHGGMFDQ | 1.18 | 1 of 6 | 0 of 18 |
| GFTLNSYGIS | VIYSDGYRTFYGDSVK | GRATDTFDT | 0.05 | 6 of 6 | 0 of 18 |
| GFTLNDYGIS | VIYSDGRRTFYIDSVK | GAAAGTFDS | 0.57 | 6 of 6 | 1 of 18 |
| GFDLNEYGIS | VIYADGMRTAYSDSVK | GETAGTFDM | -0.46 | 6 of 6 | 1 of 18 |
| GFHLDEYGIS | VIYADGMRTQYADQVK | GNLVATVMT | nd | 0 of 6 | 1 of 18 |
| GFTLESYGIS | VIYSDGRRTFYGDKVK | GRAAWTFDS | nd | 0 of 6 | 0 of 18 |
| GFTLDEYGIS | VIYADGRRTAYADSVK | GNVAGTFDQ | -0.35 | 6 of 6 | 0 of 18 |
| GFTLNSYGIS | VIYADGRRTFYGDSVK | GRAAGTFPH | nd | 0 of 6 | 0 of 18 |
| GFELNSYGIS | VIYSDGRRTFYGDSVK | GNAAGTFDT | 0.77 | 6 of 6 | 1 of 18 |
| GFDLEKYGIS | VIYADGKRVAYTDDVK | GGTGGMLMS | 2.65 | 1 of 6 | 0 of 18 |
| GFNLNSYGIS | VIYSDGRRTFYIDSVK | GRAAGTFDS | 1.53 | 10 of 12 | 1 of 36 |
| GFDLNEYGIS | VIYADGMRSYYADSVK | GNVAGTFDT | -0.35 | 6 of 6 | 0 of 18 |
| GFTLDSYGIS | VIYSDGRRTFYSDSVK | GRLAGTFDS | 0.22 | 12 of 12 | 3 of 36 |
| GFDLDEYGIS | VIYADGKRTAYIDSVK | GEVAGTFDV | -0.45 | 6 of 6 | 0 of 18 |
| GFHLNSYGIS | VIYSDGRRTFYGDQVK | GKTAGTFDS | nd | 0 of 6 | 0 of 18 |
| GFNLDEYGIS | VIYADGRRTFYSDSVK | GEGAGTFDF | 1.39 | 6 of 6 | 0 of 18 |
| GFDLQEYGIS | VIYADGVRYAYQNSFK | GQIAGTFNS | 0.94 | 6 of 6 | 1 of 18 |
| GFDLNSYGIS | VIYSDGRRCFYGDSVK | GRAAGWFNS | 2.51 | 1 of 6 | 0 of 18 |
| GFDLDEYGIS | VIYADGMRTAYADSVK | GQNAGTFDV | -0.29 | 6 of 6 | 1 of 18 |
| GFDLNEYGIS | VIYADGMRSAYADSVK | GNNAGTFDV | -0.53 | 6 of 6 | 1 of 18 |
| GFDLNSYGIS | VIYSDGRRTFYGDSVK | GKAAGTFDW | 1.99 | 5 of 6 | 0 of 18 |
| GFTLNEYGIS | VIYSDGRRTSYSDSVK | GRAAGTFDS | 0.04 | 6 of 6 | 0 of 18 |
| GFTLNEYGIS | VIYSDGWRTFYSDSVK | GRAAGTFTS | 1.66 | 6 of 6 | 0 of 18 |
| GFDLNEYGIS | VIYADGKRTAYADDVK | GNVAGTFDA | -0.29 | 6 of 6 | 0 of 18 |
| GFDLMEYGIS | VIYADGVRTAYQDQVK | GEEGGALYT | nd | 0 of 6 | 0 of 18 |
| GFTLNSYGIS | VIYSDGERTFYGDSVK | LRAAGTFDS | nd | 0 of 6 | 0 of 18 |
| GFDLNEYGIS | VIYADGMRTYYADSVK | GNVAGTFDI | -0.56 | 6 of 6 | 2 of 18 |
| GFTLNNYGYS | VIYSDGRRTFYTDSVK | GRADGTFDS | nd | 0 of 6 | 0 of 18 |
| GFNLNSYGIS | VIYSDGRRTFYVDSVK | GNVAGTFDS | 0.44 | 6 of 6 | 0 of 18 |
| GFDLNEYGIS | VIYADGRRTFYSDSVK | GATGGTFDI | -0.31 | 6 of 6 | 1 of 18 |

The last 6 entries again:

| CDR-H1 | CDR-H2 | CDR-H3 | mean log10 Kd (nM) | detected | empty controls |
|---|---|---|---|---|---|
| GFDLMEYGIS | VIYADGVRTAYQDQVK | GEEGGALYT | nd | 0 of 6 | 0 of 18 |
| GFTLNSYGIS | VIYSDGERTFYGDSVK | LRAAGTFDS | nd | 0 of 6 | 0 of 18 |
| GFDLNEYGIS | VIYADGMRTYYADSVK | GNVAGTFDI | -0.56 | 6 of 6 | 2 of 18 |
| GFTLNNYGYS | VIYSDGRRTFYTDSVK | GRADGTFDS | nd | 0 of 6 | 0 of 18 |
| GFNLNSYGIS | VIYSDGRRTFYVDSVK | GNVAGTFDS | 0.44 | 6 of 6 | 0 of 18 |
| GFDLNEYGIS | VIYADGRRTFYSDSVK | GATGGTFDI | -0.31 | 6 of 6 | 1 of 18 |

Values reported by Li et al. 2023, doi:10.1038/s41467-023-39022-2 (FLAb copy).